Earlier results, collected in patent publication US7109310B2.
Some compounds may have been tested in ways that are not shown here.

System: fentanyl RIA
Details: Michiels et al (1977); cited from earlier work

c1ccc(CCN2CCC(Nc3ccccc3)CC2)cc1
cross-reaction: no cross-reaction was observed
